Literature values in US9907765B2, “Treatment of connective tissue diseases of the skin” (Cipher Pharmaceuticals, Inc., priority 2005, dated 2018).

Tested on: skin of humans
Settings: in vivo; cited from earlier work

Substance: 1-[[(1,1-Dimethylethyl)amino]methyl]-4-hydroxy-1,3-benzenedimethanol [Salbutamol]
- topical sensitization / contact dermatitis reactions: topical sensitizer that causes contact dermatitis reactions
